# Measurements published in PMC6130710 (Pharmaceutical Biology, 2017).
# Sequences of proteins named here, by UniProt entry; tags and fusion partners are left off. Residues count along the entry.
# UniProt P23739, 1014-1841 limits assumed: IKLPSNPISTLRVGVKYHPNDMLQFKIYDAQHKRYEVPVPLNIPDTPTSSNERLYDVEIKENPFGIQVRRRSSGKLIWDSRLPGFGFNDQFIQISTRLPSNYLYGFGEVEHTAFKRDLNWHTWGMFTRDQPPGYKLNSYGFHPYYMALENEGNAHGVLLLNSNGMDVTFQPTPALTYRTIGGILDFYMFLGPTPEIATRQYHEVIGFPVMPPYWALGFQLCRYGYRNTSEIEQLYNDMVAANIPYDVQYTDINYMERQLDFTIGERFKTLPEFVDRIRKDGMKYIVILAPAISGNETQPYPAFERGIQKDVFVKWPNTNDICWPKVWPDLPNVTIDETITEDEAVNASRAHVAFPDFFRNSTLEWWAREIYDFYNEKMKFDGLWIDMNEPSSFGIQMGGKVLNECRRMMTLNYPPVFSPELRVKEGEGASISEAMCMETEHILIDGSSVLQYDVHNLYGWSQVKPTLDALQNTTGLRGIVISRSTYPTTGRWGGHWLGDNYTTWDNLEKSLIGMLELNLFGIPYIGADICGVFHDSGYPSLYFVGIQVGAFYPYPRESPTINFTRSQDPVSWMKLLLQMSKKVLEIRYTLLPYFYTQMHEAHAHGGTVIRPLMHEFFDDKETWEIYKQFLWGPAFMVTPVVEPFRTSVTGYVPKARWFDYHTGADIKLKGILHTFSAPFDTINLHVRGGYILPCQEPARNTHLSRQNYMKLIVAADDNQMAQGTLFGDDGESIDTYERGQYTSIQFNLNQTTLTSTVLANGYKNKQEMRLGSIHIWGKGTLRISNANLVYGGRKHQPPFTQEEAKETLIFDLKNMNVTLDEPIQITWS
# UniProt P23739, 1-1013 partner limits assumed: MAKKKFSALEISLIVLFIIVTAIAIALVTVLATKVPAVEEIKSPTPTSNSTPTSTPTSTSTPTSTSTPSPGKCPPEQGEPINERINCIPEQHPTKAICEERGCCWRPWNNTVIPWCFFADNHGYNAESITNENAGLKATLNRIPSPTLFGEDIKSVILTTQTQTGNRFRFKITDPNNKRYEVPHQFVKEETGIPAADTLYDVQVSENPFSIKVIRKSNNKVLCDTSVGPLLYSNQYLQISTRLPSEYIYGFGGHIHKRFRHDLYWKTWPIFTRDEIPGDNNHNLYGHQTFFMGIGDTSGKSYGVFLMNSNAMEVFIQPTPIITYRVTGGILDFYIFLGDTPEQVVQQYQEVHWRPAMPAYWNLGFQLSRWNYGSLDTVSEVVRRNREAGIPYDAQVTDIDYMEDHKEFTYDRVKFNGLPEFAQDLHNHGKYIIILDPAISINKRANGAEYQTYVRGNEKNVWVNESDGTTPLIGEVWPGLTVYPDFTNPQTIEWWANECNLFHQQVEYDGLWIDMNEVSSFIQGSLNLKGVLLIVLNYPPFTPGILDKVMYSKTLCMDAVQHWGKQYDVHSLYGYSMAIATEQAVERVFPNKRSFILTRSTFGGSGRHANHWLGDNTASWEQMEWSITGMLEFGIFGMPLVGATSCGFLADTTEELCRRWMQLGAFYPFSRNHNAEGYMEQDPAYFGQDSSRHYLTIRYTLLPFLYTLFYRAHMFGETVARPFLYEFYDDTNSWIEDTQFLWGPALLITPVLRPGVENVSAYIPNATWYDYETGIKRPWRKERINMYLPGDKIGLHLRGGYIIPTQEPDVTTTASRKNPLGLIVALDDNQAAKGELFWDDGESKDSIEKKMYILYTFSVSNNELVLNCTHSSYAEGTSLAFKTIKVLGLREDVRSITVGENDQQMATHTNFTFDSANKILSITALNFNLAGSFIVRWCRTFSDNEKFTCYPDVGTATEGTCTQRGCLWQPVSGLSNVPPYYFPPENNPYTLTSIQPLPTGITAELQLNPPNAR
# Molecular target: T1, rat intestinal α-glucosidase (sucrase) (Rattus norvegicus, UniProt P23739)
# T1 construct: tissue Sigma Aldrich; host or cells: rat intestinal acetone powder
# Assay: rat intestinal α-glucosidase (sucrase) inhibition assay
# Type: biochemical
# Settings: rat intestine
# Experimental: 1 D and 2 D NMR spectra were recorded on a Bruker 400 AVANCE spectrometer, and the chemical shifts were reported in parts per million (ppm) using tetramethylsilane (TMS) as the internal standard. Melting points were determined on a Fisher-Johns Melting Point apparatus. Adsorbents such as silica gel 60 (Merck) were used for column and radial (chromatotron model 7924 T, Harrison Research) chromatographies. Merck silica gel 60F254 plates were used for TLC. HRESIMS spectra were obtained using a Bruker MICROTOF model mass spectrometer. UV-visible absorption spectra were recorded using a UV-2550 (SHIMADZU) UV-Vis spectrometer (Shimadzu, Kyoto, Japan). α-Glucosidase (EC 3.2.1.20) from Saccharomyces cerevisiae and 4-nitrophenyl-α-D-glucopyranoside (p-NPG) were obtained from Sigma-Aldrich (St. Louis, MO). Acarbose was obtained from Bayer Vitol Leverkusen, Germany. Rat intestinal acetone powder was supplied by Sigma Aldrich.
# Moreover, previous procedure (Damsud et al. [2013]) was also applied to determine inhibitory activity of isolated compounds against intestinal α-glucosidases (maltase and sucrase). […] The absorbance of final product was determined at 503 nm, and percent inhibition was calculated using the aforementioned equation.
structure (smiles),measurement,setting,value
"C[C@H]1O[C@H](O[C@H]2[C@H](O)[C@@H](O)[C@@H](O[C@H]3[C@H](O)[C@@H](O)C(O)O[C@@H]3CO)O[C@@H]2CO)[C@H](O)[C@@H](O)[C@@H]1N[C@H]1C=C(CO)[C@@H](O)[C@H](O)[C@H]1O (some centres unmarked) [Acarbose, reference compound]",IC50,"compounds, Table 2",10.9 ± 2.36 µM
same,IC50,"fractions A-G, Table 1",11 µM
